Target: T1, Histone deacetylase 8 (Homo sapiens, UniProt Q9BY41)
T1 sequence (Q9BY41 whole entry): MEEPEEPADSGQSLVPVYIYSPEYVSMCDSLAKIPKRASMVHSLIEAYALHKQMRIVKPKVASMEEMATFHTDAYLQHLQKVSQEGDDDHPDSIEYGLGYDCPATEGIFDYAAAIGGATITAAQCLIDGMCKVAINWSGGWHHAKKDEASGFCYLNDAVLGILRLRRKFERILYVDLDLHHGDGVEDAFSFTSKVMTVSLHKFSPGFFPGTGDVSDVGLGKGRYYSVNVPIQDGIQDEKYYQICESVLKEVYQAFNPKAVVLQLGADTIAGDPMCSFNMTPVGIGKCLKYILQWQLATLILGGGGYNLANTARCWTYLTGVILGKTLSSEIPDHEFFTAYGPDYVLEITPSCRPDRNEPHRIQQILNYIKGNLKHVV
Assay: Inhibition of recombinant full length C-terminal His-tagged human HDAC8 expressed in baculovirus infected in Sf9 cells using Ac-peptide-AMC as substrate after 1 hr by fluorescence assay

IC50: 0.682 µM
Structure (SMILES): O=C(CCCCCCC(=O)Nc1ccccc1)NO [VORINOSTAT]

From ChEMBL document CHEMBL4364248, “Discovery of 1,2,4-oxadiazole-Containing hydroxamic acid derivatives as histone deacetylase inhibitors potential application in cancer therapy” (Eur J Med Chem, 2019)
